S100A4 MyoIIA = inhibitors of human S100A4 binding to myosin IIA peptide; 360,000 tested, 0.14% active; P26447; inhibition, % at 10.7 µM; S100A4/TAMRA-MyoIIA peptide fluorescence polarization; AID 652163;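 active = mean inhibition of at least 70% across replicates, with every replicate also reaching that level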
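assay system = human S100A4 monomer with TAMRA-labelled myosin IIA peptide | also added = labelled myosin peptide probe, 5 nM | incubation = 5 min between mix addition and reading | control set = DMSO and TFP controls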
SIRT5 inh = blocks human SIRT5 desuccinylation of peptide; inhibition, % at 15 µM; 330,000 tested, 1.1% active; Purified SirT5, succinyl-peptide AMC, trypsin-coupled fluorescence; Q9NXA8; in the data active = inhibition above about 15%
FGF22 binding-1 = FGF22 (human) thermal shift binding | Q9HCT0 | recombinant FGF22 thermal shift, SYPRO orange fluorescence; percent of sucrose octasulfate shift, DMSO zero | activity (Tm shift, normalised), % at 9.99 µM | 340,000 tested, 1.5% active;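 active = mean Tm shift, scaled 0 neutral to 100 positive control, at about 1.3% or above, every replicate too, limit read from the data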
Yeast UUG start = modulators of start codon recognition fidelity in yeast; AID 602363; hit rate 0.13% among 350,000; activity score, % at 18.7 µM; S. cerevisiae UUG-firefly luciferase reporter, luminescence/redox ratio;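 active = replicate mean at a twofold rise or more, about +100% in these data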;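 note: firefly luciferase made from a UUG start codon reports start codon fidelity; reporter light over untreated wells divided by growth signal over untreated wells; some hits fall short of that in this replicate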
PDI turbidity = PDI (human) enzyme inhibition; PDI insulin aggregation turbidity, A650, 90 min; inhibition, % at 10 µM; 350,000 tested, 0.052% active; AID 588391;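 active = mean inhibition across replicates of 30% or more, whatever share of single replicates reach that level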
ERp5 inh = blocks human ERp5 reductase activity on insulin; 350,000 tested, 0.05% active; Q15084; ERp5 insulin aggregation, absorbance 650 nm, 90 min; inhibition, % at 9.99 µM;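 active = mean replicate inhibition above about 25%, with every replicate also reaching it, limit read from the data, passing the limit was not always enough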
FGF22 binding-2 = binds human FGF22 shifting its melting temperature | recombinant FGF22 thermal shift, SYPRO orange fluorescence | thermal shift activity, °C (ΔTm) at 38 µM | 1,000 tested, 2% active | shares compounds with FGF22 binding-1;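 active = fitted rise in melting shift crosses a set limit at or below the top valid dose tested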
TSA no protein = counter-screen for FGF22 binders: compound-only thermal shift, no protein; 1,000 tested, 2% active; AC50, µM (series often up to 38 µM); shares compounds with FGF22 binding-1; compound-only SYPRO orange thermal shift counter-screen;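 active = rising signal whose fitted curve reaches the 0.54 level within the top valid dose, showing a melting point, actives reach about 13 µM in these data; inactive = the rest, including activity in the opposite direction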; note: value is where the raw curve crosses a fixed level and not half-maximal
Numbers stand for hits; . = inactive; / = no result given. A selection: hits, their analogues and other compounds. The true share with any hit is near 2.2%.

SMILES	S100A4 MyoIIA	SIRT5 inh	FGF22 binding-1	Yeast UUG start	PDI turbidity	ERp5 inh	FGF22 binding-2	TSA no protein
COC(=O)CN1C(=S)N(c2ccc(F)cc2)C(=O)C1CC(=O)Nc1ccccc1 (stereo not drawn)	.	.	1.6	.	.	.	.	.
CCOc1ccc(NC(=O)CC2C(=O)N(c3ccc(OC)cc3)C(=S)N2Cc2ccccn2)cc1 (stereo not drawn)	.	.	2.0	.	.	.	.	.
CCNC(=O)CC1C(=O)N(c2ccc(OC)cc2)C(=O)N1Cc1ccc(OC)cc1 (stereo not drawn)	/	/	/	.	.	/	/	/
C/C=C/c1ccc([C@@H]2[C@@H](CO)N(C(=O)C3CCCC3)C23CN(C(=O)NC(C)C)C3)cc1	.	.	/	/	/	.	/	/
Cc1onc(-c2ccccc2)c1C(=O)Nc1ncc([N+](=O)[O-])s1	.	.	1.9	.	.	.	/	.
Cc1onc(-c2ccccc2)c1C(=O)Nc1nnc(C(C)C)s1	.	.	.	.	.	.	/	/
CN1CCN(C(=O)C[C@@H]2CC[C@H]3[C@@H](COC[C@@H](O)CN3S(=O)(=O)c3cccc(Cl)c3)O2)CC1	.	.	.	.	/	.	/	/
CCCCNC(=O)C1(C)CCCCN1C(=O)c1c(F)ccc(C)c1F (stereo not drawn)	.	.	1.7	.	.	.	.	.
CCCCNC(=O)C1(C)CCCCN1C(=O)c1ccc(C)c(F)c1 (stereo not drawn)	.	/	.	.	.	.	/	/
COc1ccc(S(=O)(=O)N2C[C@@H](O)COC[C@@H]3O[C@H](CC(=O)N(C)C)CC[C@H]32)cc1	.	.	.	.	/	.	/	/
COc1ccc(NC(=O)CN(C)C(=O)c2cn(-c3ccccc3)nc2-c2cccs2)cc1	.	.	.	.	.	.	/	/
COc1ccc(NC(=O)CN(C)C(=O)c2cn(-c3ccccc3)nc2-c2cccnc2)cc1	.	.	2.4	.	.	.	.	.
COc1ccc(NC(=O)COC(=O)Cc2c[nH]c3ccccc23)cc1Cl	.	.	1.7	.	.	.	.	.
Cc1ccc(NC(=O)COC(=O)Cc2c[nH]c3ccccc23)cc1C	.	.	.	.	.	.	/	/
CS(=O)(=O)N1CC2(C1)[C@@H](c1ccccc1)[C@@H](CO)N2CC1CCCC1	.	.	.	/	/	.	/	/
CCc1ccc(C(=O)NNC(=O)c2cccc(N3C(=O)CCC3=O)c2)cc1	.	.	19	/	.	.	.	.
CCOC(=O)Cn1c2ccccc2n2nc(CCC(=O)O)c(=O)nc12	.	.	19	.	.	.	.	.
Cc1noc(NC(=O)c2ccccc2Cl)c1C#N	/	/	/	.	.	/	/	/
Cc1noc(NC(=O)c2cccc(Cl)c2Cl)c1C#N	.	.	1.3	/	.	.	.	.
CCCNC(=O)N[C@@H]1CC[C@H](CCn2cc(C3CCCC3)nn2)O[C@@H]1CO	.	.	.	.	/	.	/	/
CCCCNC(=O)c1onc(CSc2ccc(F)c(F)c2)c1C(=O)NCCCC	.	.	31	.	.	.	.	6.3µM
CCCCNC(=O)c1onc(CSc2ccc(F)cc2)c1C(=O)NCCCC	.	.	.	.	.	.	/	/
CN1C(=O)c2cc(NC(=O)Cc3ccccc3)ccc2OC[C@@H]2O[C@H](CC(=O)O)CC[C@H]21	.	.	1.4	.	/	.	.	.
CN1C(=O)c2cc(NC(=O)c3cccc(F)c3)ccc2OC[C@@H]2O[C@H](CC(=O)NCc3ccccc3)CC[C@@H]21	/	/	2.2	.	/	/	.	.
CCNC(=O)Nc1ccc2c(c1)C(=O)N(C)[C@H]1CC[C@H](CC(=O)NCc3ccc(F)cc3)O[C@H]1CO2	.	.	28	.	/	.	.	.
CCNC(=O)Nc1ccc2c(c1)C(=O)N(C)[C@H]1CC[C@@H](CC(=O)NCc3ccc(F)cc3)O[C@H]1CO2	.	.	.	.	/	.	/	/
CN1C(=O)c2cc(NC(=O)Cc3ccccc3)ccc2OC[C@H]2O[C@H](CC(=O)O)CC[C@H]21	.	.	.	.	/	.	/	/
